In publication PMC9716449 (International Journal of Tryptophan Research : IJTR, 2022):
pIC50: −log10 of the molar value.

Amino acid sequences for entries named in this document (tags omitted). A change or cut given only in a name is not applied to a line headed by its entry.
UniProt P48775: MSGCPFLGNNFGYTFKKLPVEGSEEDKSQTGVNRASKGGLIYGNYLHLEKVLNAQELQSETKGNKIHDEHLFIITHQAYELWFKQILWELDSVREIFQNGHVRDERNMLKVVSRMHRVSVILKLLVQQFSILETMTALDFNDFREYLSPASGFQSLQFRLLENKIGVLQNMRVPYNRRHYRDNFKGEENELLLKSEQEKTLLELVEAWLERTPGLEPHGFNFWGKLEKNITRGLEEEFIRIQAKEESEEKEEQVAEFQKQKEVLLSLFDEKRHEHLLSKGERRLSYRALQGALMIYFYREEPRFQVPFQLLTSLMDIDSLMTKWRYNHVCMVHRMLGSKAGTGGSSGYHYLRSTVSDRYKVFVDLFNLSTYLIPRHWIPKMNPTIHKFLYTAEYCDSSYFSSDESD

Molecular target: rhTDO (Homo sapiens, UniProt P48775)
Assay: Enzyme assay
Type: biochemical
Settings: read-out: IC50 value on rhTDO; cell-free; 2 mM L-Trp

Fc1ccc2c(/C=C/c3cccnc3)c[nH]c2c1 [680C91] showed a pIC50 of 6.06.
